# Measured values: BindingDB's records for doi:10.1021/jm050680m (Johnson & Johnson Pharmaceutical Research and Development, 2005)
# Experiments:
# [1] = Antiproliferative activity against PDGF-BB stimulated HCASMC
# [2] = as above; remark: listed apart in the source
IC50 [1] [nM],IC50 [2] [nM],SMILES
268,,"COc1cc2c(cc1OC)-c1n[nH]c(Nc3cccc(Cl)c3)c1C2 [3-chloro-N-(6,7-dimethoxy-2,4-dihydroindeno[1,2-c]pyrazol-3-yl)phenylamine]"
,188,"COc1cc2c(cc1OC)-c1n[nH]c(Nc3cccc(C)c3)c1C2 [3-methyl-N-(6,7-dimethoxy-2,4-dihydroindeno[1,2-c]pyrazol-3-yl)phenylamine]"
,9,"COc1ccc2c(c1)-c1n[nH]c(Nc3ccccc3)c1C2 [(7-methoxy-2,4-dihydroindeno[1,2-c]pyrazol-3-yl)phenylamine]"
